# Measurements from patent EP3860599B1, “(+)-ALPHA-DIHYDROTETRABENAZINE DOSAGE REGIMEN FOR TREATING MOVEMENT DISORDERS” (Adeptio Pharmaceuticals Limited, priority 2018, dated 2020).
# Amino acid sequences for entries named in this document (tags omitted).
# UniProt Q05940, whole entry: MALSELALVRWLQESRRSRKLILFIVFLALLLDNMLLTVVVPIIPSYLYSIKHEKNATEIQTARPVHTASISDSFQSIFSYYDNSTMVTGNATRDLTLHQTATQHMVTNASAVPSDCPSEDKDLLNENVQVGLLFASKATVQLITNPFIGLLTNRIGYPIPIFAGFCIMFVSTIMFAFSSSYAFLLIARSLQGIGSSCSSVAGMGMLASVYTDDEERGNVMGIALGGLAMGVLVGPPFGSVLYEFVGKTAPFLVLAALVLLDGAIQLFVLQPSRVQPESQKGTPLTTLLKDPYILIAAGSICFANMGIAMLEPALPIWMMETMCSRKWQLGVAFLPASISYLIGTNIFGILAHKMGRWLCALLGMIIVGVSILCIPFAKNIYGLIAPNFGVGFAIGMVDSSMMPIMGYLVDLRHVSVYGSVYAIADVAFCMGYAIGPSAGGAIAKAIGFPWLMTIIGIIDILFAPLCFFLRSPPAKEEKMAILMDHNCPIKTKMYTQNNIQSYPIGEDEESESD
# UniProt Q01827, whole entry: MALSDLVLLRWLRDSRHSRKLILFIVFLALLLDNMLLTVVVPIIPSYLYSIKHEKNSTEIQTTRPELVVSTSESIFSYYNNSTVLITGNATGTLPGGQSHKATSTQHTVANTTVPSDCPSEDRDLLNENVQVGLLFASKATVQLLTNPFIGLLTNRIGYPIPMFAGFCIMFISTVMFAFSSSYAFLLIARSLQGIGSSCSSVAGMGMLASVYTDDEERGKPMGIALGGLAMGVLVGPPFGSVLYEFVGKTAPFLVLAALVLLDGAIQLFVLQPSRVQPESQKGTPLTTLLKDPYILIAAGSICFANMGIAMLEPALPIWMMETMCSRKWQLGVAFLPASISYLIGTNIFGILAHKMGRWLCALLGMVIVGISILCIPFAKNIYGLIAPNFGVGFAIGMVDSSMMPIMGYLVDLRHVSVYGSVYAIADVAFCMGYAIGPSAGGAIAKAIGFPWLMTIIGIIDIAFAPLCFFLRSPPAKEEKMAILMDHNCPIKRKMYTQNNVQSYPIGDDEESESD
# Experiments:
# VMAT2 = molecular target: T1, VMAT2 (Homo sapiens, UniProt Q05940); experiment: % VMAT2 blocking by PET scan after oral dosing of human volunteers, Example 1A; type: in vivo; details: average plasma levels of less than 15 ng/ml during the period of PET scanning
# T1 construct: from tissue
# From the text: Complete blocking of VMAT2 is considered undesirable as this can lead to unwanted side effects, such as Parkinsonism. […] The levels of VMAT2 blocking can be determined by competitive binding studies using Positron Emission Tomography (PET). By co-administering a radioactive ligand with the compound of interest at various concentrations, the proportion of binding sites occupied can be determined (see for example, Matthews et al., "Positron emission tomography molecular imaging for drug development", Br. J. Clin. Pharmacol., 73:2, 175-186).
# (+)-α-Dihydrotetrabenazine in defined amounts was administered by oral dosing (as a solution in apple juice) to six human volunteers. Blood samples were taken at 30, 60, 120 and 180 minutes after drug administration. At 60 minutes after drug administration, PET scans were initiated and these were stopped at 120 minutes after drug administration.
# The experiment was carried out at dosages of 7.5 mg, 15 mg and 22.5 mg.
# VMAT2 receptor = VMAT2 receptor (Rattus norvegicus, UniProt Q01827); details: [3H]-tetrabenazine competition, in vitro; cited from earlier work
Compound,% VMAT2 binding (VMAT2),Ki (VMAT2 receptor) [nM]
"COc1cc2c(cc1OC)[C@H]1C[C@@H](O)[C@H](CC(C)C)CN1CC2 [(+)-α-dihydrotetrabenazine, (R,R,R)-3-isobutyl-9,10-dimethyloxy-1,3,4,5,7,11b-hexahydro-2H-pyrido[2,1-a]isoquinolin-2-ol]",at least 50%,
(-)-α-dihydrotetrabenazine,,2200
